Literature values as cited in patent US4663343A, “Substituted naphthalenyloxy-1,2-diaminocyclohexyl amide compounds” (dated 1987).

Tested on: kappa opioid receptor
Details: P. V. Vanvoigtlander et al., J. Pharmacol. Exp. Ther., 224: 7-12 (1983)

## CN(C(=O)Cc1ccc(Cl)c(Cl)c1)[C@@H]1CCCC[C@H]1N1CCCC1 (relative stereo)
  kappa opioid receptor agonist activity (in words): selective kappa opioid receptor agonist activity
